This is an account of results in PMC12200682 (PLOS One, 2025).

Sequences of proteins named here, by UniProt entry; tags and fusion partners are left off.
UniProt P11387, whole entry: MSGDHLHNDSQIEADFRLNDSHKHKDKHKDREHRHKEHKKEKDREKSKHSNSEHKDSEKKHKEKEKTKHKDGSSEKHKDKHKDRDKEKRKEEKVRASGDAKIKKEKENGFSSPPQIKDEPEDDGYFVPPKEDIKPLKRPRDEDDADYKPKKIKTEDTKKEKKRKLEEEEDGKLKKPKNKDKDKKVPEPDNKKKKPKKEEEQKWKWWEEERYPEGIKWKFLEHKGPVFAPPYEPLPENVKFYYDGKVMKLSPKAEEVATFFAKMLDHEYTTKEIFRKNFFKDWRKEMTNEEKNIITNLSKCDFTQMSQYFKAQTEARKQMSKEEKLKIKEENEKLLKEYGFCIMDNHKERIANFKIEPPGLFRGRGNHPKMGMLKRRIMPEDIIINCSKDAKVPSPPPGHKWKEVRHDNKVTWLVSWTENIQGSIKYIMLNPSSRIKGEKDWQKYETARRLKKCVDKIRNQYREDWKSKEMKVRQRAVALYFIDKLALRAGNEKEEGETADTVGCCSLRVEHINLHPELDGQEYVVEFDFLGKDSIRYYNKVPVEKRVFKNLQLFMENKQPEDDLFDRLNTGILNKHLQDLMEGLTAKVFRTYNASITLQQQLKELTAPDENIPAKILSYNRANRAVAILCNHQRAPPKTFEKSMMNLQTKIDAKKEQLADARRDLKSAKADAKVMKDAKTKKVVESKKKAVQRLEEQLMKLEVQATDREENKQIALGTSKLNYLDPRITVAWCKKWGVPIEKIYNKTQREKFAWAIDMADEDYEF

Each structure is given as a SMILES string.

In one data set the target is human topoisomerase I (Homo sapiens, UniProt P11387). Briefly: Topoisomerase I inhibition assay. The data set is classed as biochemical. As to conditions: read-out: Top I inhibition (IC50). The protocol: Topoisomerase I inhibition assay was outsourced to Wuxi Apptech Co. Ltd. Topoisomerase I activity was measured using human topoisomerase I microplate assay kit (Inspiralis), according to the manufacturer’s instructions.

Data set [1] in a line: Pharmacokinetics of payload in mice. As to conditions: 0.5 mg/kg, i.v. injection. In kind it is in vivo, C57BL/6 mice.
The nature of data set [2]: Lipophilicity assay (chromatographic LogD). The conditions noted are these: from HPLC retention time. In kind it is physicochemical. The protocol: Distribution coefficient (LogD, pH 7.4) was obtained by a high-throughput alternative method. Each compound was dissolved in DMSO at 10 mM. After centrifugation, the solution was measured by reversed-phase HPLC on a C18 column (50 × 4.6 mm, […] Gemini C18, Phenomenex) at pH 7.4, using fast gradient acetonitrile-aqueous buffer mobile phases. The lipophilicity was estimated from a calibration curve using six reference compounds by plotting their respectively measured retention time versus LogD in literature. The chromatographic LogD values were derived directly from the gradient retention time by using this calibration curve.

A short description of data set [3]: Parallel artificial membrane permeability (PAMPA) assay. In kind it is in vitro ADME. As to the method: PAMPA assay was outsourced to Wuxi Apptech Co. Ltd. Briefly, donor plate, acceptor plate and receiver plate formed a sandwich and 200 µL of 5.0 µM donor solutions were added. The concentrations of compounds in both plates were measured by a LC-MS/MS system after 30 minutes. The permeability coefficient (Peff, nm/s) values at pH 5 and 7.4 were calculated.
A general note: The PAMPA barrier holds no transporters, so it reflects passive diffusion.

The term IC50 denotes the concentration that gives 50% inhibition. For orientation: Vss means the apparent volume that relates the amount in the body to the concentration in plasma or blood. A lower Vss goes with confinement near the circulation.

With `CC[C@@]1(O)C(=O)OCc2c1cc1n(c2=O)Cc2c-1nc1cc(F)c(C)c3c1c2[C@@H](NC(=O)CO)CC3`, at human topoisomerase I, the IC50 is 970 nM. In data set [1], the CL stood at 54 mL/min/kg, the Vss came to 1.276 L/kg and the t1/2 worked out at 16.2 min. Also, the LogD (pH 7.4) in data set [2] was determined as 1.43. Further, in data set [3] (pH 5), the “PAMPA Peff” value turned out to be 2.59 ×10⁻⁶ cm/s. In addition, the “PAMPA Peff” value in data set [3] (pH 7.4) stood at 1.75 ×10⁻⁶ cm/s.
